Results published in ChEMBL document CHEMBL1129593, “Halogenated mazindol analogs as potential inhibitors of the cocaine binding site at the dopamine transporter” (J Med Chem, 1996).

Protein sequences, listed by entry. Tags and fused reporters are not part of them.
UniProt P23977, whole entry: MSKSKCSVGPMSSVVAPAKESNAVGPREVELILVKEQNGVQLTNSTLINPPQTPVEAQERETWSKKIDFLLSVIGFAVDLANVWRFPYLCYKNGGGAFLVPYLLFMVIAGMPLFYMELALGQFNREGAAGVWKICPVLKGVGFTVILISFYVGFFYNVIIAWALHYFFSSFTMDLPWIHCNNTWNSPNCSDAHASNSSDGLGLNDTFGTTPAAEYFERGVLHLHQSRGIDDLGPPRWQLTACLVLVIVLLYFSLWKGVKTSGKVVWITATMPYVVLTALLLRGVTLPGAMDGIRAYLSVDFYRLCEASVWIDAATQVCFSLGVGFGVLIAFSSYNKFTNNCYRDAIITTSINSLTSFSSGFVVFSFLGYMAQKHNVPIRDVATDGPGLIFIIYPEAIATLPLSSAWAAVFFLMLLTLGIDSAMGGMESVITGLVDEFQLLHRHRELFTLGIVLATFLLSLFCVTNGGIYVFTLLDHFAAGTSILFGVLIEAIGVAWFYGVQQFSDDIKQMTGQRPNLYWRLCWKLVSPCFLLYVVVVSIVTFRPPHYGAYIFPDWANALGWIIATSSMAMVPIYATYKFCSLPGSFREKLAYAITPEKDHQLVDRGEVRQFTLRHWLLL

Target: Sodium-dependent dopamine transporter (Rattus norvegicus, UniProt P23977)
Assay: Inhibition of [3H]WIN-35428 binding to the dopamine transporter in rat brain
Type: tissue-based
In short: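 Striatal tissue from male Sprague-Dawley rats (200-250 g), 0.1 mg original wet weight per tube. Nonspecific binding was defined with 30 µM (R)-(-)-cocaine. Stopped by filtration through polyethylenimine-soaked GF/B filters with three ice-cold buffer washes. Equilibrium binding analysis.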

For OC1(c2ccccc2Br)c2ccccc2C2=NCCN21 (stereo unspecified), the IC50 was 1340 nM.
